Source: patent US12331059B2 (priority 2019, dated 2025)

Tested on: MV4-11 cells
Settings: 48 h culture, half inhibitory concentration on growth of tumor cells

Cc1ncsc1-c1ccc(CNC(=O)C2CC(O)CN2C(=O)C(NC(=O)CNC(=O)OCCC2OC3OC4(C)CCC5C(C)CCC(C2C)C35OO4)C(C)(C)C)cc1 (stereo not shown)
IC50: 870 nM
